# Measurements as given in PubChem BioAssay AID1996.
# Settings: buffer; pH 7.4; 200.0 µM
row,Structure (SMILES),solubility kinetic
1,O=C(NCC1(N2CCCCC2)CCCCC1)c1ccco1,> 43.6 µg/mL
2,CCOC(=O)N1CCC(Nc2ccc(F)cc2)CC1,36.3 µg/mL
3,N#CC1(Nc2ccccc2)CCN(Cc2ccccc2)CC1,39.7 µg/mL
4,CCOC(=O)N1CCC(Nc2ccc(C)cc2)CC1,> 39.4 µg/mL
5,O=C(NCC1(N2CCCCC2)CCCCC1)c1cccc([N+](=O)[O-])c1,> 51.8 µg/mL
6,CCOC(=O)N1CCC(Nc2cccc(C)c2)CC1,29.9 µg/mL
7,CN1CCC(Nc2ccc(F)c(Cl)c2)CC1,> 36.4 µg/mL
8,CN(C)C1(CNC(=O)c2cccc(C#N)c2)CCCCC1,40.6 µg/mL
9,CCCOc1ccc(C(=O)NCC2(N(C)C)CCCCC2)cc1,> 47.8 µg/mL
10,O=C(NCC1(N2CCCCC2)CCCCC1)c1cccs1,> 46 µg/mL
11,CC(C)c1ccc(NC2CCN(C(=O)OC(C)(C)C)CC2)cc1,4.4 µg/mL
12,CCCOc1ccc(C(=O)NCC2(N(C)C)CCCCC2)cc1OC,> 52.3 µg/mL
13,O=C(NCC1(N2CCCCC2)CCCCC1)c1ccc(F)cc1,> 47.8 µg/mL
14,O=C(NCC1(N2CCOCC2)CCCCC1)c1cc(F)c(F)cc1Cl,> 55.9 µg/mL
15,O=C(NCC1(N2CCCCC2)CCCCC1)c1ccc(=O)[nH]c1,> 47.6 µg/mL
16,CCN1CCC(Nc2ccc(Cl)cc2)CC1,25.5 µg/mL
17,COc1cc(OC)cc(C(=O)NCC2(N3CCOCC3)CCCCC2)c1,45.9 µg/mL
18,CN(C)c1ccc(C(=O)NCC2(N3CCCCC3)CCCCC2)cc1,> 51.5 µg/mL
19,CCCN1CCC(Nc2cc(OC)cc(OC)c2)CC1,> 41.8 µg/mL
20,CN1CCC(Nc2ccc(Cl)cc2)CC1,30.6 µg/mL
21,CC(C)(C)OC(=O)N1CCC(Nc2ccccc2)CC1,35.2 µg/mL
22,COc1cc(C(=O)NCC2(N3CCOCC3)CCCCC2)cc(OC)c1C,5.8 µg/mL
